Measured values from patent US20250312336A1, “Compositions And Methods For Treating Cancer With Calcium Channel Inhibitors” (Institute for Cancer Research d/b/a The Research Institute …, priority 2024, published 2025).

Tested on: intratumoral and splenic immune cells
Assay: Immunoprofiling of tumor and splenic tissues of KPC3 tumor-bearing mice
Assay type: in vivo, mouse
Conditions: tumor-bearing mice treated 3 weeks; for Frequencies of immune cells in the spleen: clofazimine 50 mg/kg
Experimental: Orthotopically implanted syngeneic KPC3 tumor tissues were harvested and digested with 1 mg/mL Collagenase D (Roche, Switzerland) plus with 100 μg/mL DNase I (Roche) in RPMI medium for 45 min with continuous agitation at 37° C. The digestion mixture was passed through a 100 μm cell strainer to prepare single cell suspension and washed with PBS supplemented with 2 mM EDTA and 1% FBS. Single cells were stained with antibodies purchased from BioLegend (San Diego, CA) diluted at 1:200 for staining: CD45-BV785 (cat #103149), CD3-APC (cat #100236), CD8-APC/Cy7 (cat #100714), TIM3-BV421 (cat #134019), CD69-FITC (cat #104506), PD-1-BV605 (#135220), CD11C-PE/Cy7 (cat #117318), MHCII-APC (cat #107615), CD11b-Percp/Cy5.5 (cat #101228), F4/80-BV421 (#123132), Ly6C-BV605 (cat #128036), Ly6G-APC/Cy7 (cat #127624), NK1.1-FITC (cat #156508), CD3-APC/Cy7 (cat #100222), CD8-PE/Cy7 (cat #100722), IFN-γ-APC (cat #505810), Granzyme B-Percp/Cy5.5 (cat #372212), CD3-BV421 (cat #100228), CD4-PE/Cy7 (cat #116016), CD25-APC/Cy7 (cat #, 101908), Foxp3-AF647 in permeabilized cells (cat #,320014). Cholesterol abundance in cell membranes was determined with Cholesterol Detection Assay Kit (Cayman, cat #10009779). Dissociated cells were fixed with fixative solution for 10 minutes, washed and labeled with Filipin III as per the manufacturer's instructions. Labeling with Filipin III was done by incubating in the dark for 30 minutes. After two washes for 5 minutes each, labeling was analyzed by flow cytometry (excitation: 340-380, emission: 385-470). The IFN-γ, Granzyme B and Foxp3 were detected using Foxp3/Transcription Factor Staining Buffer (00-5523-00, Thermo Fisher Scientific). Cells were stained for cell surface markers at 4° C. for 30 min followed by fixation and permeabilization buffer for 30 mins and two washes with permeabilization buffer and incubation with the indicated antibodies for 30 mins, washed with PBS twice followed by flow cytometry analysis.

With `CC(C)/N=c1\cc2n(-c3ccc(Cl)cc3)c3ccccc3nc-2cc1Nc1ccc(Cl)cc1` [clofazimine] the “Cholesterol levels (Filipin III) in intratumoral CTLs” value was “decreased cholesterol levels”, the “Cholesterol levels (Filipin III) in splenic CD8+ T cells” value was “failed to do so” and the “Exhaustion markers PD-1 and TIM3 in intratumoral CTLs” value was “decreased expression”. For the same molecule, the “Intratumoral CD8+ T cells” value was “increased numbers”, the “Intratumoral CD11b+F4/80+ macrophages, LY6G+ granulocytic or LY6C+ monocytic MDSCs, NK cells” value was “did not change the numbers” and the “Intratumoral regulatory T cells (Tregs)” value was “significantly fewer regulatory T cells”. For the same molecule, the “Intratumoral type I conventional dendritic cells” value was “increased numbers”, the “T cell activation markers CD69, IFN-γ, Granzyme B in intratumoral CTLs” value was “increased levels of expression” and the “Frequencies of immune cells in the spleen” value was “No clofazimine-induced changes”. For the same molecule, the “Frequencies of immune cells in the spleen” value (listed as Clofazimine) was “has no effect on preponderance of immune subsets”, the “Intratumoral CD11b+F4/80+ macrophages, LY6G+ granulocytic or LY6C+ monocytic MDSCs, NK cells” value (listed as Clofazimine) was “does not change the percentage” and the “Markers of T cell effector function or exhaustion (CD69, PD-1, TIM3, interferon-γ) in splenic CD8+ CTLs” value (listed as Clofazimine) was “has no effect on expression”.
